Measurements: ChEMBL document CHEMBL4400539, “Discovery of a Novel Chemotype of Histone Lysine Methyltransferase EHMT1/2 (GLP/G9a) Inhibitors: Rational Design, Synthesis, Biological Evaluation, and Co-crystal Structure” (J Med Chem, 2019)

Biological target: T1, Histone-lysine N-methyltransferase EHMT2 (Homo sapiens, UniProt Q96KQ7)
T1 sequence (Q96KQ7 whole entry): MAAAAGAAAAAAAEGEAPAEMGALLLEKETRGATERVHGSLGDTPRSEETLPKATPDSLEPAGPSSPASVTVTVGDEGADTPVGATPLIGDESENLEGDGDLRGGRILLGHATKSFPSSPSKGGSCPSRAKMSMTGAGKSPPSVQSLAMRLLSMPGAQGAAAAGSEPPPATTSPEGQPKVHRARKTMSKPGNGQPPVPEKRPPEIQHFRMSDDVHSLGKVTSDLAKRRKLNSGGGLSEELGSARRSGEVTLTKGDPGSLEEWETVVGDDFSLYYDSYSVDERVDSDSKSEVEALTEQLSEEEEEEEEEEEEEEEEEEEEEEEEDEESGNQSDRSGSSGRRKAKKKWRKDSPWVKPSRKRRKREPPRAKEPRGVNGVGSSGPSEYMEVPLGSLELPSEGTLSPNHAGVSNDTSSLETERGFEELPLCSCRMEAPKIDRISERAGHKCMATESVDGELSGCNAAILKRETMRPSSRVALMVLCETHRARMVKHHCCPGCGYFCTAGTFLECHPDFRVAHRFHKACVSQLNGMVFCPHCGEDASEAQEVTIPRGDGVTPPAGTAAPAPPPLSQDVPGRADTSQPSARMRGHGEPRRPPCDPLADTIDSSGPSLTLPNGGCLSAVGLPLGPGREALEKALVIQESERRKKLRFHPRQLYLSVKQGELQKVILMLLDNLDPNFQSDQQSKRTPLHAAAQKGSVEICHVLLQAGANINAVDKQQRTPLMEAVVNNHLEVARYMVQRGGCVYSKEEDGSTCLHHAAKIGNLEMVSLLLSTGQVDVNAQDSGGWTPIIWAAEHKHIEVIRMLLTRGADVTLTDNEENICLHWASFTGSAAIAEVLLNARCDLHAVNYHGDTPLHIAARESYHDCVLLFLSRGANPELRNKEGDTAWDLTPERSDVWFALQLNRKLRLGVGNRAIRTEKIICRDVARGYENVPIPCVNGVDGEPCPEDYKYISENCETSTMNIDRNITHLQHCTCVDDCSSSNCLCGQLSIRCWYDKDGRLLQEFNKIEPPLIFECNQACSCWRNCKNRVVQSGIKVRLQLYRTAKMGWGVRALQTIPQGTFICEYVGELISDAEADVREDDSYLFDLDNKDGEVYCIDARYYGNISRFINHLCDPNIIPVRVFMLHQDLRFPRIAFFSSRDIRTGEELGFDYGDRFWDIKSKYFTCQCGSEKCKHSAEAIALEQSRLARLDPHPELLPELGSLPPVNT
Test: Inhibition G9a (unknown origin)

O=C(O)c1ccc2c(c1)nc(NC(=O)c1ccccc1)n2CCCc1ccccc1
pIC50: 5.82

pIC50: −log10 of the molar value.
